Amino acid sequences for entries named in this document (tags omitted). A change or cut given only in a name is not applied to a line headed by its entry.
UniProt P28074: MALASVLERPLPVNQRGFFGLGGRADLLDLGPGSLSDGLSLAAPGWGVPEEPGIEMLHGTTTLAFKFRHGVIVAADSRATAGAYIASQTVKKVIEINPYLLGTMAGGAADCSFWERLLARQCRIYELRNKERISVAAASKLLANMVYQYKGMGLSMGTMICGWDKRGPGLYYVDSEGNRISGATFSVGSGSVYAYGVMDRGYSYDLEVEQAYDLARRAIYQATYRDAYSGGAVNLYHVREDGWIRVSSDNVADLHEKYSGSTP

In ChEMBL document CHEMBL3804753, “Substituted quinolines as noncovalent proteasome inhibitors” (Bioorg Med Chem, 2016):

Key:
[1] = biological target: T1, Proteasome Macropain subunit MB1 (Homo sapiens, UniProt P28074); experiment: Inhibition of human 20S proteasome chymotryptic-like activity using Suc-LLVY-AMC as substrate expressed in human OCI-AML2 cells assessed as free 7-amino-4-methylcoumarin release preincubated for 22 hrs followed by substrate addition by fluorescent spectrophotometric analysis; format: cell-based
[2] = biological target: T1, Proteasome Macropain subunit MB1; experiment: Inhibition of human 20S proteasome chymotryptic-like activity using Suc-LLVY-AMC as substrate expressed in human K562 cells assessed as free 7-amino-4-methylcoumarin release preincubated for 22 hrs followed by substrate addition by fluorescent spectrophotometric analysis; format: cell-based
[3] = biological target: T1, Proteasome Macropain subunit MB1; experiment: Inhibition of human 20S proteasome chymotryptic-like activity using Suc-LLVY-AMC as substrate expressed in human KMS18 cells assessed as free 7-amino-4-methylcoumarin release preincubated for 22 hrs followed by substrate addition by fluorescent spectrophotometric analysis; format: cell-based
[4] = biological target: T1, Proteasome Macropain subunit MB1; experiment: Inhibition of human 20S proteasome chymotryptic-like activity using Suc-LLVY-AMC as substrate expressed in human UTMC2 cells assessed as free 7-amino-4-methylcoumarin release preincubated for 22 hrs followed by substrate addition by fluorescent spectrophotometric analysis; format: cell-based
[5] = biological target: T1, Proteasome Macropain subunit MB1; experiment: Inhibition of human 20S proteasome chymotryptic-like activity using Suc-LLVY-AMC as substrate expressed in human MDAY-D2 cells assessed as free 7-amino-4-methylcoumarin release preincubated for 22 hrs followed by substrate addition by fluorescent spectrophotometric analysis; format: cell-based
[6] = biological target: T1, Proteasome Macropain subunit MB1; experiment: Inhibition of human 20S proteasome chymotryptic-like activity using Suc-LLVY-AMC as substrate expressed in human KG1A cells assessed as free 7-amino-4-methylcoumarin release preincubated for 22 hrs followed by substrate addition by fluorescent spectrophotometric analysis; format: cell-based
[7] = biological target: T1, Proteasome Macropain subunit MB1; experiment: Inhibition of human 20S proteasome chymotryptic-like activity using Suc-LLVY-AMC as substrate expressed in human NB4 cells assessed as free 7-amino-4-methylcoumarin release preincubated for 22 hrs followed by substrate addition by fluorescent spectrophotometric analysis; format: cell-based, NB-4
[8] = biological target: T1, Proteasome Macropain subunit MB1; experiment: Inhibition of human 20S proteasome chymotryptic-like activity using Suc-LLVY-AMC as substrate expressed in human KMH11 cells assessed as free 7-amino-4-methylcoumarin release preincubated for 22 hrs followed by substrate addition by fluorescent spectrophotometric analysis; format: cell-based

Measured: IC50

Nc1ccc(O)c2ncccc12
600 nM: [1] | [2] | [3] | [4] | [5] | [6] | [7] | [8]
